# Earlier results as cited in paper PMC8261488, “Contraceptive progestins with androgenic properties stimulate breast epithelial cell proliferation” (EMBO Molecular Medicine, 2021).
# System: women
# Settings: ref Soini et al, 2016; cited from earlier work
compound,measurement,value
"C#C[C@]1(O)CC[C@H]2[C@@H]3CCC4=CC(=O)CC[C@@H]4[C@H]3CC[C@@]21CC [LNG, levonorgestrel]",RR for lobular breast cancer,1.33
